Series [1] can be described thus: Lipophilicity (logD7.4) determination according to the present invention, two 1-octanol/phosphate buffer solvent systems in 96 deep well plate, LC/MS. In kind it is physicochemical. As to conditions: 1-octanol:phosphate buffer pH 7.4 at 5:95 and 50:50, 25° C., 3 hours shaking.
A short description of series [2]: Lipophilicity determination by a shake-flask method (Comparative Example), 1-octanol/phosphate buffer pH 7.4, LC/MS. In kind it is physicochemical. As to conditions: 1-octanol / phosphate buffer solution pH 7.4, shaken 10 minutes.

On to Famotidine, for which, in series [1], the “LogD Inventive determination method (Example)” value is recorded as −0.8. For the same substance, the “LogD Shake-flask method (Comparative Example)” value in series [2] is given as −0.8.
